Results on 1 substance are retold here after US20180355034A1.

Amino acid sequences for entries named in this document (tags omitted). Residues count along the entry.
UniProt P55899, 24-290, chain 1 of 2: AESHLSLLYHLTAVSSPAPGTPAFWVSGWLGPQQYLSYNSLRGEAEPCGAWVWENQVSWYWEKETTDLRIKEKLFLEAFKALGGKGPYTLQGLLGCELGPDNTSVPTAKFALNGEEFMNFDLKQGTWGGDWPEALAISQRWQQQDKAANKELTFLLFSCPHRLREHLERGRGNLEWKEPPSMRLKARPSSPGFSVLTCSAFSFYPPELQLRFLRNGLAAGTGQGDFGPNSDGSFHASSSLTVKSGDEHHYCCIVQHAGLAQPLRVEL

The test addresses Recombinant human FcRn (FcRn alpha and beta2-microglobulin) (human) (UniProt P55899). Kind of test: SPR. (In general: Surface plasmon resonance follows binding to a sensor surface in real time, without labels.)

Several values for one entry are separate records, joined by “and”; a condition that tells them apart may be missing. Equal entries are not always repeated.

The Kd is the free concentration of one partner at which half of the binding sites on the other are occupied at equilibrium, for simple one-to-one binding. “wild-type recombinant Fc fragment (human IgG1 Fc, aa 221-447) (from UniProt P01857 104-330)”: the Kd is 133 nM and 425 nM.
